Test results published in publication PMC6505380, “An Extensively Humanized Mouse Model to Predict Pathways of Drug Disposition and Drug/Drug Interactions, and to Facilitate Design of Clinical Trials” (Drug Metabolism and Disposition, 2019).

Legend:
Total hepatic P450 = conditions: mouse, in vivo
[1] = Dabrafenib pharmacokinetics in 8HUM mice: effect of SJW and hyperforin; conditions: female 8HUM mice; pretreatment with SJW or hyperforin vs vehicle

hyperforin
Total hepatic P450 (Total hepatic P450): 276 ± 28 pmol/mg protein | Decrease of the AUC of dabrafenib [1]: 65%
